Tested on: activatable antibodies comprising substrates selected for cleavage by uPA and matriptase (7 substrates tested), having the 3954 mask and C225v5 variant of cetuximab

Substance: u-plasminogen activator (uPA)
- kcat/KM: kcat/KM values ranging from about 400 to 5,000 M^-1s^-1 for uPA

— patent US20240150402A1
